## Cyclic peptide permeability, from CycPeptMPDB

Values of Townsend et al. 2020, doi:10.26434/chemrxiv.13335941.v1, as listed in CycPeptMPDB.

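The data file gives no further conditions (lipid, pH, time, direction or concentration), and values from different papers need not be comparable. Other peptides of the study may be missing here. Peptides that the database sets to -10, its floor, are left out.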

PAMPA is the parallel artificial membrane permeability assay, which has no cells and reads passive diffusion. Permeability is in 10^-6 cm/s, converted from the database's log10 values; higher is more permeable.

CC(C)C[C@H]1NC(=O)C[C@H](Cc2ccccc2)NC(=O)[C@H]2CCCN2C(=O)[C@H](Cc2ccccc2)NC(=O)CN(Cc2ccccc2)C(=O)[C@H]2CCCN2C(=O)CN(Cc2ccccc2)C1=O is reported with PAMPA 0.71 × 10^-6 cm/s.
CCCN1CC(=O)N(Cc2ccccc2)CC(=O)N(Cc2ccccc2)CC(=O)N2CCC[C@H]2C(=O)N[C@H](CC(C)C)C(=O)N[C@@H](Cc2ccccc2)C(=O)N2CCC[C@H]2C1=O is reported with PAMPA 0.71 × 10^-6 cm/s.
CC(C)C[C@@H]1NC(=O)C[C@H](Cc2ccccc2)NC(=O)[C@H](Cc2ccccc2)NC(=O)CN(Cc2ccccc2)C(=O)[C@@H]2CCCN2C(=O)[C@H](CC(C)C)N(C)C1=O is reported with PAMPA 4.1 × 10^-6 cm/s.
CC(C)C[C@H]1C(=O)N2CCC[C@@H]2C(=O)N(C)[C@@H](CC(C)C)C(=O)N[C@@H](Cc2ccccc2)C(=O)N2CCC[C@H]2C(=O)N[C@@H](C)C(=O)N(Cc2ccccc2)CC(=O)N1C is reported with PAMPA 2.7 × 10^-6 cm/s.
CC(C)C[C@@H]1NC(=O)[C@@H]2CCCN2C(=O)C[C@H](Cc2ccccc2)NC(=O)CN(Cc2ccccc2)C(=O)[C@@H](C)NC(=O)[C@@H]2CCCN2C(=O)[C@H](Cc2ccccc2)NC1=O is reported with PAMPA 0.66 × 10^-6 cm/s.
CCCN1CC(=O)N(Cc2ccccc2)CC(=O)N(Cc2ccccc2)CC(=O)N2CCC[C@H]2C(=O)N(C)[C@H](CC(C)C)C(=O)N[C@@H](Cc2ccccc2)C(=O)N2CCC[C@H]2C1=O is reported with PAMPA 0.69 × 10^-6 cm/s.
CCCN1CC(=O)N(Cc2ccccc2)CC(=O)N[C@@H](Cc2ccccc2)CC(=O)N2CCC[C@H]2C(=O)N[C@H](CC(C)C)C(=O)N[C@@H](Cc2ccccc2)C(=O)N2CCC[C@H]2C1=O is reported with PAMPA 1.1 × 10^-6 cm/s.
CC(C)C[C@H]1C(=O)N(C)[C@@H](CC(C)C)C(=O)N2CCC[C@H]2C(=O)N(Cc2ccccc2)CC(=O)N[C@@H](Cc2ccccc2)C(=O)N[C@@H](Cc2ccccc2)CC(=O)N1C is reported with PAMPA 5.9 × 10^-6 cm/s.
CC(C)C[C@@H]1C(=O)N[C@@H](Cc2ccccc2)C(=O)N[C@@H](Cc2ccccc2)CC(=O)N(C)[C@@H](CC(C)C)C(=O)N[C@@H](Cc2ccccc2)CC(=O)N2CCC[C@@H]2C(=O)N1C is reported with PAMPA 10 × 10^-6 cm/s.
CC(C)C[C@@H]1C(=O)N2CCC[C@H]2C(=O)N(Cc2ccccc2)CC(=O)N[C@@H](Cc2ccccc2)C(=O)N2CCC[C@@H]2C(=O)N(C)[C@@H](C)C(=O)N(Cc2ccccc2)CC(=O)N1C is reported with PAMPA 1.7 × 10^-6 cm/s.
CCCN1CC(=O)N(Cc2ccccc2)CC(=O)N[C@@H](Cc2ccccc2)CC(=O)N2CCC[C@H]2C(=O)N[C@H](CC(C)C)C(=O)N[C@@H](Cc2ccccc2)C(=O)N2CCC[C@@H]2C1=O is reported with PAMPA 0.76 × 10^-6 cm/s.
CC(C)C[C@@H]1NC(=O)[C@@H](CC(C)C)N(C)C(=O)C[C@H](Cc2ccccc2)NC(=O)[C@@H]2CCCN2C(=O)[C@H](Cc2ccccc2)NC(=O)CN(Cc2ccccc2)C(=O)[C@H]2CCCN2C1=O is reported with PAMPA 1.7 × 10^-6 cm/s.
CCCN1CC(=O)N(C)[C@@H](CC(C)C)C(=O)N[C@@H](Cc2ccccc2)CC(=O)N2CCC[C@@H]2C(=O)N(C)[C@@H](CC(C)C)C(=O)N[C@@H](Cc2ccccc2)C1=O is reported with PAMPA 5.2 × 10^-6 cm/s.
CC(C)C[C@H]1NC(=O)C[C@H](Cc2ccccc2)NC(=O)[C@H](Cc2ccccc2)NC(=O)CN(Cc2ccccc2)C(=O)[C@H]2CCCN2C(=O)C[C@H](Cc2ccccc2)NC1=O is reported with PAMPA 1.7 × 10^-6 cm/s.
CC(C)C[C@H]1C(=O)N[C@@H](Cc2ccccc2)C(=O)N2CCC[C@@H]2C(=O)N(C)[C@H](C)C(=O)N(Cc2ccccc2)CC(=O)N(Cc2ccccc2)CC(=O)N2CCC[C@@H]2C(=O)N1C is reported with PAMPA 0.39 × 10^-6 cm/s.
CC(C)C[C@@H]1C(=O)N(Cc2ccccc2)CC(=O)N2CCC[C@@H]2C(=O)N(Cc2ccccc2)CC(=O)N[C@@H](Cc2ccccc2)C(=O)N2CCC[C@@H]2C(=O)N[C@H](C)C(=O)N1C is reported with PAMPA 0.98 × 10^-6 cm/s.
CCCN1CC(=O)N(Cc2ccccc2)CC(=O)N(Cc2ccccc2)CC(=O)N2CCC[C@@H]2C(=O)N(C)[C@H](CC(C)C)C(=O)N[C@@H](Cc2ccccc2)C(=O)N2CCC[C@@H]2C1=O is reported with PAMPA 1.3 × 10^-6 cm/s.
C[C@H]1NC(=O)[C@H](Cc2ccccc2)NC(=O)CN(Cc2ccccc2)C(=O)[C@@H]2CCCN2C(=O)CN(Cc2ccccc2)C(=O)CN(Cc2ccccc2)C1=O is reported with PAMPA 0.87 × 10^-6 cm/s.
CCCN1CC(=O)N[C@@H](CC(C)C)C(=O)N(Cc2ccccc2)CC(=O)N2CCC[C@H]2C(=O)N(Cc2ccccc2)CC(=O)N[C@@H](Cc2ccccc2)C1=O is reported with PAMPA 5.2 × 10^-6 cm/s.
CC(C)C[C@@H]1NC(=O)[C@@H]2CCCN2C(=O)CN(Cc2ccccc2)C(=O)[C@H](CC(C)C)N(C)C(=O)C[C@H](Cc2ccccc2)NC(=O)[C@H](Cc2ccccc2)NC1=O is reported with PAMPA 2 × 10^-6 cm/s.

The 2 lowest values of PAMPA among the entries above:

Listed for CC(C)C[C@H]1C(=O)N[C@@H](Cc2ccccc2)C(=O)N2CCC[C@@H]2C(=O)N(C)[C@H](C)C(=O)N(Cc2ccccc2)CC(=O)N(Cc2ccccc2)CC(=O)N2CCC[C@@H]2C(=O)N1C: PAMPA 0.39 × 10^-6 cm/s.
Listed for CC(C)C[C@@H]1NC(=O)[C@@H]2CCCN2C(=O)C[C@H](Cc2ccccc2)NC(=O)CN(Cc2ccccc2)C(=O)[C@@H](C)NC(=O)[C@@H]2CCCN2C(=O)[C@H](Cc2ccccc2)NC1=O: PAMPA 0.66 × 10^-6 cm/s.